Results taken from ChEMBL document CHEMBL1146967, “The geminal dimethyl analogue of Flurbiprofen as a novel Abeta42 inhibitor and potential Alzheimer's disease modifying agent” (Bioorg Med Chem Lett, 2006).

Protein sequences, listed by entry. Tags and fused reporters are not part of them.
UniProt P23219, whole entry: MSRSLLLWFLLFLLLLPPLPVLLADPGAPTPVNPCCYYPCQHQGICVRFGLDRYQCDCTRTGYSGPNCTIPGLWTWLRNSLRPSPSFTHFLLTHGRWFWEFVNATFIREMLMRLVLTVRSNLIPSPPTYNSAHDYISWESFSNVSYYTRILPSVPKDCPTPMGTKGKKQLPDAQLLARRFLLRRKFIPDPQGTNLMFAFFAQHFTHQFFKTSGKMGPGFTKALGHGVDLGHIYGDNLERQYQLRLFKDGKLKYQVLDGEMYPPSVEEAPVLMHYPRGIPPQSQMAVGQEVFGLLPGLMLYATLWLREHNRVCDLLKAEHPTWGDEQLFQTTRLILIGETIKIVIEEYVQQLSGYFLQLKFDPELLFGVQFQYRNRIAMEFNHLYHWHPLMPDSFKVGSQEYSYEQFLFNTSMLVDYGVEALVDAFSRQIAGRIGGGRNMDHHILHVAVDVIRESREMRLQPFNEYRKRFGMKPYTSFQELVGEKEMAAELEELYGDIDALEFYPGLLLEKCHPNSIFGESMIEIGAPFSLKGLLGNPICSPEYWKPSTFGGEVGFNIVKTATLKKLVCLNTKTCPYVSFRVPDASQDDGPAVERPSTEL

Biological target: Prostaglandin G/H synthase 1 (Homo sapiens, UniProt P23219)
Assay: Inhibition of COX1 in human whole blood
Assay type: functional, tissue-based

Row | Structure (SMILES) | IC50
1 | C[C@H](C(=O)O)c1ccc(-c2ccccc2)c(F)c1 [ESFLURBIPROFEN] | 2 µM
2 | C[C@@H](C(=O)O)c1ccc(-c2ccccc2)c(F)c1 [TARENFLURBIL] | 44 µM
